Laboratory results reported in article PMC5329131 (Biochimica et biophysica acta, 2017).

The chains behind the UniProt entries cited, without tags or fusion partners. Where a name states a change or a piece, a line headed by the entry shows the natural chain unless it says otherwise.
UniProt P11716: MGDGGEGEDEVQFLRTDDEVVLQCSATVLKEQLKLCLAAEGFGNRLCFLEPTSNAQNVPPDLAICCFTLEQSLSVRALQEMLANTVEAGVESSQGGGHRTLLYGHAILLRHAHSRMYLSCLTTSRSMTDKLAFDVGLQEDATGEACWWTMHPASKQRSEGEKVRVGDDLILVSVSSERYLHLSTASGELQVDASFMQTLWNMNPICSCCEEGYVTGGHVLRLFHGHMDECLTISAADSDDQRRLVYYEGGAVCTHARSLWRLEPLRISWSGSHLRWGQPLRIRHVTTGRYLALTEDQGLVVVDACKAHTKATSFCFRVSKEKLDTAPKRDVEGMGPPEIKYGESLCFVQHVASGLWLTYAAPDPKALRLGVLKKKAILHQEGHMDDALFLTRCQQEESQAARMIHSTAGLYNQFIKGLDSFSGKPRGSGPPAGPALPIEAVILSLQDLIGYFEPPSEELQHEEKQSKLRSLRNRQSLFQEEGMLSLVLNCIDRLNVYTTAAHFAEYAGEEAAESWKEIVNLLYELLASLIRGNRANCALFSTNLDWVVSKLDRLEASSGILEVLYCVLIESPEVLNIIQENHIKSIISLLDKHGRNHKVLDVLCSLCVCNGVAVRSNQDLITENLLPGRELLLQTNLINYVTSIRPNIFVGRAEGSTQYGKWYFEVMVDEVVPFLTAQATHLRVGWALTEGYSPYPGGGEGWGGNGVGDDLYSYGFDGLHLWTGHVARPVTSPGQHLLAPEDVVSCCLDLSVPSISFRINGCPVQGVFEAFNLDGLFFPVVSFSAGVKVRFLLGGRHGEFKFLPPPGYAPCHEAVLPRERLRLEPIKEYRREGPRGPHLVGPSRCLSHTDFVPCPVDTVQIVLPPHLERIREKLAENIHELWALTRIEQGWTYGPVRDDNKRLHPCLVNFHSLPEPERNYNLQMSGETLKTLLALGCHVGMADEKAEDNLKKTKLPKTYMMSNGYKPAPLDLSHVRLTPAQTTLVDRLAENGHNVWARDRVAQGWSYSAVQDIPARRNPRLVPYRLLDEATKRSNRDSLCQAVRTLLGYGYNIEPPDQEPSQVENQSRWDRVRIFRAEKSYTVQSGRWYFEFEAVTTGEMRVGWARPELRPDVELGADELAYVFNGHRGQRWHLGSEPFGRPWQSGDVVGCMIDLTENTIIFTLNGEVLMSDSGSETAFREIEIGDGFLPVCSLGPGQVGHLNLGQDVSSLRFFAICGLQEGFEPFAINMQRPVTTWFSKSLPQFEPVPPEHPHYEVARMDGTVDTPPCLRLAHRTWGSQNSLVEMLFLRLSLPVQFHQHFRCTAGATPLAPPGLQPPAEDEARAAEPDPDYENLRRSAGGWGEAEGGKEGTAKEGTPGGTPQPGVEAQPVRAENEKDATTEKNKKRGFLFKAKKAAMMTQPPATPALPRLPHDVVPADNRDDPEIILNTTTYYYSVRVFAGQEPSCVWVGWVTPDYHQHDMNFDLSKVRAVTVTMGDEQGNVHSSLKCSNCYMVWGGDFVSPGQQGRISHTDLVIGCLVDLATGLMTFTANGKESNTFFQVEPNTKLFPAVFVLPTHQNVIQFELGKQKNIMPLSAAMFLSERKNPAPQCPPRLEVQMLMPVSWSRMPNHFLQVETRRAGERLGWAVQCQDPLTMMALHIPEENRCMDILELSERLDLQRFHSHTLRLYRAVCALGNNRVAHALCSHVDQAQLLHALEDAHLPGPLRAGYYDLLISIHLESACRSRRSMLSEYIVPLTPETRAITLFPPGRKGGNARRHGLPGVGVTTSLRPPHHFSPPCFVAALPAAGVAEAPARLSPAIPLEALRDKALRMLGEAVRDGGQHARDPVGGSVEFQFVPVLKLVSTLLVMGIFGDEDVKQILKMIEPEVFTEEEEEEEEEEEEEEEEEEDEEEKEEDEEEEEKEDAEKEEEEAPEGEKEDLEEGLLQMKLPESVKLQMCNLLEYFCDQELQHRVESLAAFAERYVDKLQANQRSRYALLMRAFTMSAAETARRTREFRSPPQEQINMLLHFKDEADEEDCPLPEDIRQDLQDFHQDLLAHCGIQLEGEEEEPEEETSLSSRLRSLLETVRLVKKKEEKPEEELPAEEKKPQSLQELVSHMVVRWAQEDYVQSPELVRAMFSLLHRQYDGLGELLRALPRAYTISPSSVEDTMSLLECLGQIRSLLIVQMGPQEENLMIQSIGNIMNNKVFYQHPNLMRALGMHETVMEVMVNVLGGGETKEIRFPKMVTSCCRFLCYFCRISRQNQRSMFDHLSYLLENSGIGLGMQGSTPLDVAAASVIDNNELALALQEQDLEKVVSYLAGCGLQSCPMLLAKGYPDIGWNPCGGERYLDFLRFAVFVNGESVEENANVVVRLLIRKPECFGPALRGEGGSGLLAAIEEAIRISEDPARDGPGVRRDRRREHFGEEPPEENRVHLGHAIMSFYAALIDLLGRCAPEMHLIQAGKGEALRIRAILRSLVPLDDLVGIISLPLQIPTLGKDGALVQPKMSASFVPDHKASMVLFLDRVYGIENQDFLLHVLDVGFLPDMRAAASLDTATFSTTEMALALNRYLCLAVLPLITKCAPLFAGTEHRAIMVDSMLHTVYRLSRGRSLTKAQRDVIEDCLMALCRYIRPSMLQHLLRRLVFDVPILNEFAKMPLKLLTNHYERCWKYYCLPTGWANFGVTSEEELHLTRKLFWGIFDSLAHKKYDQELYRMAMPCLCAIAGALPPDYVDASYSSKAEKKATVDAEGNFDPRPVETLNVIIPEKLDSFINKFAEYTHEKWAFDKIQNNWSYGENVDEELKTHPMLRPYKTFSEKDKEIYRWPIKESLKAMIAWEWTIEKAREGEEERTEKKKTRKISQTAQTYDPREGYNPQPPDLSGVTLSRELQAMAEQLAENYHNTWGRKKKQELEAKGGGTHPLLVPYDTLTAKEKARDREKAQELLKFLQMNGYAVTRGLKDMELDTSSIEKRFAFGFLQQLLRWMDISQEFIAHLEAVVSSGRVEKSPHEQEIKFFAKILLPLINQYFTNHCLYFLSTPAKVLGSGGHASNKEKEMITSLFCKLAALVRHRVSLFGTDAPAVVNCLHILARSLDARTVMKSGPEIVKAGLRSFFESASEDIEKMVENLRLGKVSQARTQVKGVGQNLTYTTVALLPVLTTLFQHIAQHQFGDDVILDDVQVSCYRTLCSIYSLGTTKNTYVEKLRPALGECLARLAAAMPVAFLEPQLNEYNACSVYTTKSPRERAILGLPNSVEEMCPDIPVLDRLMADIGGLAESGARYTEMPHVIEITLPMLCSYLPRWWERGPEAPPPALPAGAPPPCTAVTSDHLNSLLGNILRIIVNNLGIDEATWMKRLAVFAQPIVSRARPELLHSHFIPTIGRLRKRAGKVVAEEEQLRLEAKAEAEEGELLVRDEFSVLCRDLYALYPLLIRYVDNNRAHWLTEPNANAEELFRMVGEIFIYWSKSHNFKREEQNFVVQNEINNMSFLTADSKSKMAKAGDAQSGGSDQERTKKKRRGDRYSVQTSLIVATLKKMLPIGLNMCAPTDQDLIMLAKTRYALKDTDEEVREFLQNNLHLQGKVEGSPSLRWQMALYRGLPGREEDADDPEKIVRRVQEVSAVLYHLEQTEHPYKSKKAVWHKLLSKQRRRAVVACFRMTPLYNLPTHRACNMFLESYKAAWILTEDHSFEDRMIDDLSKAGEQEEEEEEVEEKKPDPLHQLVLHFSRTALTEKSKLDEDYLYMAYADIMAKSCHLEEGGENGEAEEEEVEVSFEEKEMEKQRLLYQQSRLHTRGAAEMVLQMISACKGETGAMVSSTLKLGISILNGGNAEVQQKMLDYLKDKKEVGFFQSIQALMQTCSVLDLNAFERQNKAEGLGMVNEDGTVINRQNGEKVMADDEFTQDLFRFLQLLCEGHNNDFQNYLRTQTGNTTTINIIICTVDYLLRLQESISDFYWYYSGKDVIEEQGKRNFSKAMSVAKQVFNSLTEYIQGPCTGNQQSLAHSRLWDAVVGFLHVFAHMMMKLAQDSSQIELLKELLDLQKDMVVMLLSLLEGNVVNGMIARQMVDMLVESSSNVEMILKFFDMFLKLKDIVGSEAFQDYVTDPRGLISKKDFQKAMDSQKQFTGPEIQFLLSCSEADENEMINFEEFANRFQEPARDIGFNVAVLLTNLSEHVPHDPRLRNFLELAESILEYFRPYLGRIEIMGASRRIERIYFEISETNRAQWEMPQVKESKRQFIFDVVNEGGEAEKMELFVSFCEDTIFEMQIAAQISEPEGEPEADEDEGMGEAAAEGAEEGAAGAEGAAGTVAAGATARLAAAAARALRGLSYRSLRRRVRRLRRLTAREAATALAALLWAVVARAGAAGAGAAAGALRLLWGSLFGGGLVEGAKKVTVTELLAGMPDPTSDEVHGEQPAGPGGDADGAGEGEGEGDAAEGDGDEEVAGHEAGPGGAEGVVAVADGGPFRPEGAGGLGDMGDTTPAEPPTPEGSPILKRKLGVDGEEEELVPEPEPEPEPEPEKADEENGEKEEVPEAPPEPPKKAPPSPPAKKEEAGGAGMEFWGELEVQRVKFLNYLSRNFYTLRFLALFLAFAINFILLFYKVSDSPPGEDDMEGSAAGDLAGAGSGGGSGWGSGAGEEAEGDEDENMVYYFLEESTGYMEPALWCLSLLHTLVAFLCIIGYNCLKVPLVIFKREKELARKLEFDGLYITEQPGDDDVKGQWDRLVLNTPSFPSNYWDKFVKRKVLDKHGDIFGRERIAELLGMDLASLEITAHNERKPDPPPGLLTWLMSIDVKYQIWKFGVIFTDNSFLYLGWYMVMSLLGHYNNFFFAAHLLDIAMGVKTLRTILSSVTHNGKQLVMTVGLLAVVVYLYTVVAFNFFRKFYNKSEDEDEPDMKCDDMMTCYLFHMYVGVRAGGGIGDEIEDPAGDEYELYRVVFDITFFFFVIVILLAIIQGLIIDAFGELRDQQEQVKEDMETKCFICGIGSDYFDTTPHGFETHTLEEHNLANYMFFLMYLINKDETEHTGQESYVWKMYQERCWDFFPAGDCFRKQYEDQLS

Target: skeletal RyR (RyR1) (Oryctolagus cuniculus, UniProt P11716)
Assay type: binding, rabbit
Conditions: estimate of purity of heavy SR vesicles

In the case of [^3H]ryanodine, the “[3H]ryanodine binding of heavy SR vesicles” value is reported as 10-15 pmoles/mg protein.
